Patent US7288560B2, “Spirocyclic cyclohexane derivatives” (dated 2007)

Protein sequences, listed by entry. Tags and fused reporters are not part of them. Lines headed by an entry give the natural chain unless they say otherwise; changes in a name come on top.
UniProt P35372, whole entry, looked up: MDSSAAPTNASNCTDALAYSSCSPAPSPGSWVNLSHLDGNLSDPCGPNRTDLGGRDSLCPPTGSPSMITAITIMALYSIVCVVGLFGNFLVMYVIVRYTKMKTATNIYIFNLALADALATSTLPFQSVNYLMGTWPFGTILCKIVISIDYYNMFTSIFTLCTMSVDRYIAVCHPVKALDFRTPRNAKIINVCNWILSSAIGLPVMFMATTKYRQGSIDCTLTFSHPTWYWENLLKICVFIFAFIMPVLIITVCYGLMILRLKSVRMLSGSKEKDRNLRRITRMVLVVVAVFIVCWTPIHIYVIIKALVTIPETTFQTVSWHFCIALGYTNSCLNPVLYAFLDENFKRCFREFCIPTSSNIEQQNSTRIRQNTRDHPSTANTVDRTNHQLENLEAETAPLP
UniProt P41146: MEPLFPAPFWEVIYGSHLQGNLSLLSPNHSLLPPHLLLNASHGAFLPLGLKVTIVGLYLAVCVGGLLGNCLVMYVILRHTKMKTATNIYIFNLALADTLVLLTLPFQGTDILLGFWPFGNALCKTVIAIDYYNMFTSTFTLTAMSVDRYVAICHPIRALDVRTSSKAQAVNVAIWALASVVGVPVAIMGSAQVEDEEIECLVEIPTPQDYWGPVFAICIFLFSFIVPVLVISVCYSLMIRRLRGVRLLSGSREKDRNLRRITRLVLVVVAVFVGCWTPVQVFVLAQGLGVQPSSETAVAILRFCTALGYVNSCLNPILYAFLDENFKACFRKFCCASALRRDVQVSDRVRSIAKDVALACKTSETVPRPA

Columns and labels:
[1] = system: binding site 2 of the sodium channel (BTX binding site); assay: Sodium channel binding site 2 (BTX bond), [3H]-batrachotoxinin A20 α-benzoate; settings: synaptosomes from rat cerebrocortex, 10 nM [3H]-batrachotoxinin A20 α-benzoate
[2] = molecular target: human μ-opiate receptor (Homo sapiens, UniProt P35372); assay: μ-opiate receptor binding, [3H]-Naloxon displacement; settings: test substance 1 μmol/l; CHO-K1 membranes expressing human μ-opiate receptor; 1 nmol/l [3H]-Naloxon
[3] = molecular target: ORL1 receptor (Homo sapiens, UniProt P41146); assay: ORL1 receptor-binding assay with 3H-nociceptin/orphanin FQ; settings: test concentration 1 μM; membranes of recombinant CHO-ORL1 cells; 0.5 nM 3H-nociceptin/orphanin FQ

Compound | % inhibition [10 μM] [1] [%] | % inhibition [1 μM] [2] [%] | % inhibition (ORL1 bond) [3] [%]
CN(C)C1(c2cccc(F)c2)CCC2(CC1)OCCc1[nH]c3ccccc3c12.O=S(=O)(O)C(F)(F)F (centres unmarked) | 74 | 59 | 
CN(C)C1(c2ccccc2)CCC2(CC1)OCCc1[nH]c3ccccc3c12.O=C(O)CC(O)(CC(=O)O)C(=O)O (centres unmarked) | 76 | 61 | 
N,N-dimethyl-N-{4-(3-fluorophenyl)-spiro[cyclohexane-1.4′-1′,4′-dihydro-2′H;-3′-oxa-9′-thiafluoren]-4-yl}ammonium triflate | 76 |  | 
N,N-dimethyl-N-{4-(4-fluorophenyl)-1′,3′,4′,5′-tetrahydro-spiro[cyclohexane-1,1′-pyrano[4.3-b]indol]-4-yl}ammonium triflate | 64 | 62 | 
N,N-dimethyl-N-{4-(4-fluorophenyl)-spiro[cyclohexane-1,4′-1′,4′-dihydro-2′H;-3′-oxa-9′-thiafluoren]-4-yl}ammonium triflate | 71 |  | 
N,N-dimethyl-N-{4-phenyl-1′,4′-dihydrospiro[cyclohexane-1,4′-2′H-3′,9′-dioxafluoren]-4-yl}ammonium methane sulphonate | 86 | 60 | 
N,N-dimethyl-N-{4-phenyl-1′,4′-dihydrospiro[cyclohexane-1,4′-2′H-9′-oxa-3′-thiafluoren]-4-yl}ammonium methane sulphonate | 74 |  | 
N,N-dimethyl-N-{4-phenyl-1′,4′-dihydrospiro[cyclohexane-1,4′-2′H;-3′,9′-dithiafluoren]-4-yl}ammonium methane sulphate | 75 |  | 
N,N-dimethyl-N-{4-phenyl-spiro[cyclohexane-1,4′-1′,4′-dihydro-2′H;-3′-oxa-9′-thiafluoren]-4-yl}aminetriflate | 82 | 54 | 
N,N-dimethyl-N-{4-pyridine-1′,3′,4′,5′-tetrahydro-spiro[cyclohexane-1-1′-pyrano[4,3-c]indol]-4-yl}amine citrate | 84 | 78 | 49
